Literature values, collected in US5723449A, “Methods and compositions for inhibiting uridine secretion” (priority 1996, dated 1998).

Tested on: isolated cat brain
Details: cited from earlier work

With uridine and cytidine as the substance, how does the “corneal and pupillary reflexes” value (addition to the perfused media) read?
The value was “return to normal”.

And the electrical activity (isolated brain perfused with simple blood medium, after cessation at about one hour)?
Its electrical activity is “electrical activity is restored”.
